Screening data (PubChem BioAssay)
esBAF inh = inhibitors of esBAF chromatin remodeling in mouse ES cells. Bmi1-luciferase knock-in reporter, 24 h; 100% = twice the neutral-well signal. reporter increase, % at 12.5 µM. 350,000 tested, 2% active; in the data active = activation above about 40%; inconclusive = no clear call, values can overlap the other calls;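 note: a rise in the Bmi1 reporter signal indicates esBAF inhibition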
UUG fidelity = modulators of start codon recognition fidelity in yeast; AID 602363; hit rate 0.13% among 350,000; activity score, % at 18.7 µM; S. cerevisiae UUG-firefly luciferase reporter, luminescence/redox ratio;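 active = replicate mean at a twofold rise or more, about +100% in these data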;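 note: firefly luciferase made from a UUG start codon reports start codon fidelity; reporter light over untreated wells divided by growth signal over untreated wells; some hits fall short of that in this replicate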
Wnt act = activates Wnt/beta-catenin signaling in a reporter cell assay | activator, plate reader | activation, % at 9.35 µM | 300,000 tested, 1.2% active | AID 743398; in the data active = activation above about 30%, passing the limit was not always enough; inconclusive = no clear call, values can overlap the other calls
miR-122 sensor = inhibitors of miR-122 in Huh7 cells. activation (reporter increase), % at 12.5 µM. 340,000 tested, 0.3% active. Huh7 miR-122 Renilla luciferase sensor, 48 h; neutral wells = 0, positive control = 100;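 active = mean replicate activation score at least 90 and every replicate individually at or above 90; inconclusive = only one of the two criteria met; inactive = neither criterion met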;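 note: higher luciferase means less miR-122 activity so hits act as miR-122 inhibitors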
PglD DTNB = PglD (C. jejuni) enzyme inhibition; purified PglD enzyme, DTNB colorimetric CoA detection; inhibition, % at 12.5 µM; 360,000 tested, 0.098% active; AID 602405; in the data active = inhibition above about 16%, passing the limit was not always enough; inconclusive = no clear call, values can overlap the other calls
MITF act = increases MITF-driven TRPM1 promoter luciferase signal; 300,000 tested, 0.75% active; SK-MEL-5 TRPM1-promoter luciferase, 24 h; % of positive control, neutral wells = 0; activation, % at 12.5 µM; AID 588334;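 active = mean activation of at least 80% with every replicate also reaching 80%; inconclusive = mean reaches 80% but some replicate falls short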
Numbers stand for hits; 0 = inactive; ? = inconclusive; - = not tested or not shown. An excerpt weighted towards active compounds, which were near 2.8% of everything screened.

SMILES | esBAF inh | UUG fidelity | Wnt act | miR-122 sensor | PglD DTNB | MITF act
O=S(=O)(c1ccc(Cl)s1)N1CCCc2cccc(O)c21 | 84 | 0 | 39 | 0 | 0 | -
COc1ccc(NC(C)=O)cc1NC(=O)CSc1nnc(C2CCCCC2)n1N | 0 | 0 | 0 | 0 | 0 | 0
COc1ccc(OC)c(NC(=O)CSc2nnc(C3CCCCC3)n2-c2ccccc2)c1 | 0 | 0 | 57 | 0 | 0 | 0
Cc1sc(NC(=O)c2cccs2)c(C(N)=O)c1C | 88 | - | 0 | 0 | - | 0
Cc1sc(NC(=S)NC(=O)C(C)(C)C)c(C(N)=O)c1C | 47 | 0 | - | - | 0 | 0
CC(C)(C)C(=O)NC(=S)Nc1sc2c(c1C(N)=O)CCC2 | 0 | 0 | 0 | 0 | 0 | 0
Cc1cc(C(=O)Nc2sccc2C(N)=O)c(C)o1 | - | - | 0 | 0 | - | 0
NC(=O)c1ccsc1NC(=O)c1cccs1 | 47 | 0 | 0 | 0 | 0 | 0
Cc1noc(C)c1NC(=O)N(C)C[C@@H]1Oc2ccc(NC(=O)Nc3ccc4c(c3)OCO4)cc2C(=O)N([C@H](C)CO)C[C@@H]1C | 0 | 0 | - | 0 | 0 | -
O=C(C[C@@H]1C[C@H]2c3cc(NC(=O)Nc4ccccc4F)ccc3O[C@H]2[C@@H](CO)O1)NCC1CC1 | 0 | 0 | - | 0 | 0 | -
C[C@H]1CN([C@@H](C)CO)C(=O)Cc2cc(NS(=O)(=O)c3cn(C)cn3)ccc2O[C@H]1CN(C)S(=O)(=O)c1cccs1 | 0 | 0 | - | 0 | 0 | -
CCOC(=O)CSC1=C(C#N)C(C)C2=C(CCCC2=O)N1 (stereo not drawn) | 62 | 0 | - | 0 | 0 | -
COC(=O)CSC1=C(C#N)C(c2ccc(C)cc2)C2=C(CCCC2=O)N1 (stereo not drawn) | - | 0 | - | 0 | 0 | 0
Cn1c(SCc2nc3ccccc3s2)nnc1-c1cccs1 | ? | 0 | - | 0 | 0 | 0
Cn1c(SCc2ccc(F)cc2)nnc1-c1cccs1 | - | - | 0 | 0 | - | 86
Cn1c(SCc2ccccc2)nnc1-c1cccs1 | 59 | 0 | - | 0 | 0 | ?
Cc1cc(/C=C2\SC(=S)NC2=O)c(C)n1-c1cccc(O)c1 | - | - | 36 | - | - | 0
COc1cccc2c1C(=O)c1ccc3ccccc3c1C2=O | 47 | 0 | - | 0 | 0 | 0
CCOC(=O)c1ccc2c(c1)NCc1cccc(OC)c1O2 | 58 | 0 | 0 | 0 | 0 | 0
COc1ccc(C(=O)OCC(=O)c2ccc3c(c2)NC(=O)CO3)cc1OC | 0 | 0 | 0 | 0 | 0 | 0
O=C(Cn1cnc2ccccc21)N/N=C/C(Br)=C/c1ccccc1 | - | - | 37 | - | - | 0
O=C(N/N=C/C(Cl)=C/c1ccccc1)c1ccccc1F | 48 | 0 | 0 | 0 | 0 | 0
O=C(N/N=C/C(Br)=C/c1ccccc1)c1ccccc1F | 51 | 0 | 0 | 0 | 0 | 0
O=C(N/N=C/C(Cl)=C\c1ccccc1)c1cnccn1 | - | 0 | - | 0 | 0 | 0
Cc1ccc(S(=O)(=O)N(C)C[C@@H]2Oc3c(NC(=O)NC4CCCCC4)cccc3C(=O)N([C@H](C)CO)C[C@H]2C)cc1 | 0 | 0 | - | 0 | 0 | -
SMILES | esBAF inh | UUG fidelity | Wnt act | miR-122 sensor | PglD DTNB | MITF act
C[C@H]1CN([C@@H](C)CO)C(=O)c2cc(NS(=O)(=O)c3ccc(F)cc3)ccc2O[C@H]1CN(C)C(=O)NC1CCCCC1 | 0 | 0 | - | 0 | 0 | -
C[C@@H]1CN([C@H](C)CO)C(=O)c2cc(C#CCc3ccccc3)cnc2O[C@@H]1CN(C)Cc1ccc(C(=O)O)cc1 | 0 | - | - | 0 | 0 | -
O=C(N[C@@H]1C=C[C@@H](CC(=O)N2CCOCC2)O[C@@H]1CO)c1ccc2c(c1)OCO2 | 0 | 0 | - | - | 0 | -
CCC(=O)N1C[C@@H](C)[C@H](OC)CN(C)C(=O)c2cc(NC(=O)C3CCOCC3)ccc2OC[C@@H]1C | 0 | 0 | - | - | 0 | -
Cc1ccc(/C=N/n2c(-c3ccccc3)n[nH]c2=S)cc1 | 0 | 0 | 0 | 0 | 0 | -
N=C1N(/N=C/c2ccccc2)C(=Nc2ccccc2)C(=S)N1c1ccccc1 | 60 | 0 | - | 0 | 0 | -
Cc1cccc(N=Nc2cnc(N)s2)c1 | - | 0 | 35 | 0 | 0 | 0
COc1ccc(NC(=O)Nc2ccc3c(c2)C(=O)N([C@@H](C)CO)C[C@H](C)[C@H](CN(C)C(=O)CCCN(C)C)OCCCC[C@H](C)O3)cc1 | 0 | 0 | - | 0 | 0 | -
O=C(/C=C/c1cc(Br)ccc1O)c1ccco1 | - | 0 | 0 | 195 | 0 | 0
O=C(/C=C/c1ccccc1O)c1ccco1 | 0 | 0 | 0 | 0 | 0 | 0
Cc1cc(C(=O)Nc2ccc(S(=O)(=O)Nc3onc(C)c3C)cc2)c(C)o1 | 0 | 0 | 0 | 0 | 0 | 0
Cc1ccc2oc(C(=O)Nc3ccc(S(=O)(=O)Nc4onc(C)c4C)cc3)c(C)c2c1 | 59 | 0 | 0 | 0 | 0 | 0
Fc1ccccc1Cn1nnc2c(NCCc3ccccn3)ncnc21 | 48 | 0 | - | 0 | 0 | 0
CO[C@H]1CN(C)C(=O)c2ccc(NC(C)=O)cc2OC[C@H](C)N(C(=O)c2ccncc2)C[C@H]1C | 0 | 0 | - | 0 | 0 | -
CCCCSc1nnc(-c2ccc(OC)cc2)n1C | 56 | 0 | - | 0 | 0 | 0
Cc1ccc(-c2nnc(SCC(C)C)n2C)cc1 | 55 | 0 | 61 | - | 0 | 0
O=C(CCN1CCCCC1)NCC[C@@H]1CC[C@@H](NS(=O)(=O)c2cccc(F)c2)[C@H](CO)O1 | 0 | 0 | - | - | 0 | -
C[C@H]1CN([C@@H](C)CO)C(=O)c2cc(NC(=O)CCCN(C)C)ccc2O[C@@H]1CN(C)S(C)(=O)=O | 0 | - | - | 0 | 0 | -
NC(=O)c1cc2c3ccccc3ccn2c1-c1ccccc1 | 49 | 0 | ? | 0 | 0 | 0
Cc1cc(C(N)=O)c2ccccc2n1 | 0 | 0 | - | 0 | 0 | 0
Cc1noc(C)c1NC(=O)N(C)C[C@@H]1OCc2ccccc2-c2ccccc2C(=O)N([C@@H](C)CO)C[C@@H]1C | 0 | - | - | - | 0 | -
OCc1cc(Br)ccc1OCc1nc2ccccc2s1 | 77 | 0 | - | 0 | 0 | 0
Oc1ccccc1OCc1nc2ccccc2s1 | 41 | 0 | - | 0 | 0 | 0
C[C@@H]1CN([C@@H](C)CO)C(=O)c2cccc(NC(=O)c3ccncc3)c2O[C@@H]1CN(C)S(=O)(=O)c1ccc(Cl)cc1 | 0 | 0 | - | 0 | 0 | -
CS(=O)(=O)Nc1ccc(C(=O)CSc2nnc(C3CC3)n2C2CC2)cc1 | 0 | 0 | 0 | 0 | 0 | 0
SMILES | esBAF inh | UUG fidelity | Wnt act | miR-122 sensor | PglD DTNB | MITF act
Cc1ccc(C(=O)CSc2nnc(C3CC3)n2C2CC2)s1 | 46 | 0 | 0 | 0 | 0 | -
CCc1ccc(C(=O)CSc2nnc(C3CC3)n2C2CC2)cc1 | 41 | 0 | 0 | - | 0 | 0
Cc1noc(C)c1C(=O)OCC(=O)c1cc(C)n(Cc2ccccc2Cl)c1C | 0 | 0 | 41 | 0 | 0 | 0
Cc1noc(C)c1C(=O)OCC(=O)c1ccc[nH]1 | 0 | 0 | 0 | 0 | 0 | 0
CN(C)c1ccc(NC(=S)NC23CC4CC(CC(C4)C2)C3)cc1 | 67 | 0 | 0 | 0 | 0 | 0
CCOc1ccc(NC(=S)NC23CC4CC(CC(C4)C2)C3)cc1 | 0 | 0 | 0 | 0 | 0 | 0
FC(F)Oc1ccc(NC(=S)NC23CC4CC(CC(C4)C2)C3)cc1 | 50 | 0 | 0 | 0 | 0 | 0
O=C(c1cnn(-c2ccccc2)c1)c1ccccc1O | 0 | - | ? | 0 | - | 0
COc1ccc(-n2cc(C(=O)c3ccccc3O)cn2)cc1 | - | - | 0 | - | - | 0
